PubChem BioAssay AID1920062 (Sanford-Burnham Center for Chemical Genomics, 2024)
This is a selection; strong and weak results do not stand in their true shares. Active and inactive are the calls of the source.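 The calls were made as follows: active = activation at 10 µM reaching about 35% in either raw or pattern-adjusted values (limit read from the data); inactive = the rest.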

Amino acid sequences for entries named in this document (tags omitted). A change or cut given only in a name is not applied to a line headed by its entry.
UniProt P20594: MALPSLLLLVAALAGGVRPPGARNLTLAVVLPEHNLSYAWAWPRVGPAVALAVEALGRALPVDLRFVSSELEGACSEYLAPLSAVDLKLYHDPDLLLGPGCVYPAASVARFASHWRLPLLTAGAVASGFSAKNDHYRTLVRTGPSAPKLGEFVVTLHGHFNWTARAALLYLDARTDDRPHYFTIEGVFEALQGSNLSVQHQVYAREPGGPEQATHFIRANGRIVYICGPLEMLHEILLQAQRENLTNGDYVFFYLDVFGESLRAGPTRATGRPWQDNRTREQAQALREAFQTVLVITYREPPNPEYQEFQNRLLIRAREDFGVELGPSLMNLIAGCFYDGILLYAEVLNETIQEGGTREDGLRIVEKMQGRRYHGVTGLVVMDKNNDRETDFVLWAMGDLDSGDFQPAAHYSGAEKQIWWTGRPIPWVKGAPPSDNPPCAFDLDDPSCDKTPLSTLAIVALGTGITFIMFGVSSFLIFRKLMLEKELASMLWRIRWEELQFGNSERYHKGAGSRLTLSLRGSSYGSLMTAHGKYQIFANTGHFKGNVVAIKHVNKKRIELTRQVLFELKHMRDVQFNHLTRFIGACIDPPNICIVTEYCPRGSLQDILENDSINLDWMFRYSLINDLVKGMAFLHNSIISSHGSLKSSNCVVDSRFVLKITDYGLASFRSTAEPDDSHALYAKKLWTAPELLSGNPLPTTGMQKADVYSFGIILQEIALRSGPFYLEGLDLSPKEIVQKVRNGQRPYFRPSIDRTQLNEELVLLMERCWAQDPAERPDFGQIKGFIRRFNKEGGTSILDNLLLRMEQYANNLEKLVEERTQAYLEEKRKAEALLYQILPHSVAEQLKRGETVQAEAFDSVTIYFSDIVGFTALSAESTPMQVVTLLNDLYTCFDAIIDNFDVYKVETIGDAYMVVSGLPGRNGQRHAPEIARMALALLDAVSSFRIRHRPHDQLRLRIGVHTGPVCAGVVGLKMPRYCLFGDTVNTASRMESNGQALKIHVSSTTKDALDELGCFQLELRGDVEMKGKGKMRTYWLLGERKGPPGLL

target: Atrial natriuretic peptide receptor 2 (Homo sapiens) (UniProt P20594); assay: GC-B stimulated cGMP production enhancers – HEK293 GC-B cells, cGMP TR-FRET, EC30 CNP, primary screen (AID 1920062); settings: at 10 µM, stronger effect = higher value, 0% at EC30 CNP, 100% saturating CNP

Row | Structure (SMILES) | activation
1 | [N-]=[N+]=NC1CCCCC1NC(=O)c1cc([N+](=O)[O-])cc([N+](=O)[O-])c1 (stereo not drawn) | inactive: -5.84%
2 | Cc1ccc(OP(=O)(Nc2ccc([N+](=O)[O-])cn2)Oc2ccc(C)cc2)cc1 | inactive: -1.79%
3 | Cc1ccc2nc3c(c(C)c2c1)CC(C(Cl)Cl)S3 (stereo not drawn) | inactive: -3.77%
4 | COc1cc(C(=O)NCC2(N3CCOCC3)CCCCC2)ccc1OCC(C)C | inactive: 1.76%
5 | O=[N+]([O-])c1ccc(-c2cc([N+](=O)[O-])c(O)c([N+](=O)[O-])c2)cc1 | inactive: 0.88%
6 | O=[As](O)(c1ccc(O)cc1)c1ccccc1O | inactive: 1.78%
7 | C[As](=O)(O)c1cccc(C(=O)O)c1 | inactive: -3.04%
8 | O=P(Nc1ccccn1)(c1cccc2ccccc12)c1cccc2ccccc12 | inactive: -15.4%
9 | Cc1cc(SC(NC=O)C(Cl)(Cl)Cl)ncn1 (stereo not drawn) | inactive: -3.22%
10 | O=[N+]([O-])c1ccc(Nc2ccc(Oc3ccc([N+](=O)[O-])cc3[N+](=O)[O-])cc2)c([N+](=O)[O-])c1 | inactive: -3.19%
11 | CCOC(=O)Nc1cccc([As](=O)(O)O)c1 | inactive: -1.63%
12 | COP(=O)(OC)N1CC1c1ccccc1 (stereo not drawn) | inactive: -0.68%
13 | Cc1cc(SC(NC(=O)c2ccccc2)C(Cl)(Cl)Cl)nc(C(C)C)n1 (stereo not drawn) | inactive: -0.67%
14 | CCCCOc1ccc(C(=O)NCC2(N3CCCCC3)CCCCC2)cc1OC | inactive: 2.27%
15 | CCOC(=O)Nc1ccc([As](=O)(O)O)c(O)c1 | inactive: -0.04%
16 | O=C(O)C(O)c1ccc(N(CCCl)CCCl)cc1 (stereo not drawn) | inactive: 0.18%
17 | CC1CCNP(=O)(N(CCCl)CCCl)O1 (stereo not drawn) | inactive: -1.74%
18 | CCC(C)N(CC(C)C)C(=S)SC(NC(C)=O)C(Cl)(Cl)Cl (stereo not drawn) | inactive: -6.84%
19 | O=C(OC1CN2CCC1CC2)c1cccc([N+](=O)[O-])c1 (stereo not drawn) | inactive: 0.12%
20 | CCOC(=O)c1ccc(NC(=O)C(C)(CCl)SC)cc1 (stereo not drawn) | inactive: 3.08%
21 | O=C(O)C(=O)c1ccc(N(CCCl)CCCl)cc1 | inactive: -0.2%
22 | O=C(Nc1ccncc1[N+](=O)[O-])c1ccc([N+](=O)[O-])cc1[N+](=O)[O-] | inactive: 3.89%
23 | O=C(COc1ccccc1)OC1CN2CCC1CC2 (stereo not drawn) | inactive: -0.56%
24 | COC(=O)C1(C)COP(=O)(N2CCCC2)OC1 (stereo not drawn) | inactive: 3.55%
25 | COP1(=S)c2c(C)nn(CCC#N)c2N=C(c2ccc(F)cc2)N1C (stereo not drawn) | inactive: 5.85%

Row | Structure (SMILES) | activation
26 | CN(C(=O)Cc1ccc(Cl)c(Cl)c1)C1CCCC[C@@H]1N1CCCC1 (stereo partly drawn) | inactive: -7.1%
27 | CC(C)/C=N\N=C(\N)N[N+](=O)[O-] | inactive: 4.13%
28 | CN(C(=O)Cc1ccc(Cl)c(Cl)c1)[C@@H]1CCCC[C@H]1N1CCCC1 | inactive: 2.18%
29 | CC1(CBr)Cn2c(nc3ccccc3c2=O)S1 (stereo not drawn) | inactive: -0.83%
30 | COc1ccccc1CNC(=O)COC(=O)C(O)(c1ccccc1)c1ccccc1 | inactive: 1.43%
31 | CC(C)(C)C(=O)NC(Sc1ncccn1)C(Cl)(Cl)Cl (stereo not drawn) | inactive: -1.12%
32 | O=P1(N(CCCl)CCCl)NCCC(C(F)(F)F)O1 (stereo not drawn) | inactive: 3.88%
33 | Clc1n[nH]nc1-c1nn[nH][15n]1 | inactive: -1.82%
34 | CCOP(=O)(NC(=NC(C)c1ccccc1)NC(C)c1ccccc1)OCC (stereo not drawn) | inactive: -5.3%
35 | O=P1(Nc2ccccn2)COc2ccccc2OC1 | inactive: -0.87%
36 | CCC1=CC2Cc3nc4ccc(Cl)cc4c(N)c3C(C1)C2 (stereo not drawn) | inactive: -29.8%
37 | CN(CCCl)Cc1cc(Cl)c(NC2=NCCN2)c(Cl)c1 | inactive: 4.83%
38 | CCOP(=O)(Nc1ccc(C)cn1)OCC | inactive: 1.54%
39 | Nc1cccc([As](=O)(O)c2ccccc2)c1 | inactive: -1.25%
40 | O=P1(Nc2ccc(Br)cn2)COc2ccccc2OC1 | inactive: -1.2%
41 | NS(=O)(=O)c1cccc(NC(=O)COC(=O)C(O)(c2ccccc2)c2ccccc2)c1 | inactive: 3.02%
42 | O=[As](O)(c1cccs1)c1cccs1 | inactive: -2.23%
43 | Cc1ccc(OCC(=O)OC2CN3CCC2CC3)cc1 (stereo not drawn) | inactive: 0.5%
44 | Cc1ccc(S(=O)(=O)N(CCCN)CCCc2c(C)nc(N)[nH]c2=O)cc1 | inactive: -0.51%
45 | O=P1(Nc2ncccn2)COc2ccccc2OC1 | inactive: -1.5%
46 | CN(C)C1(CNC(=O)c2ccc(S(C)(=O)=O)cc2)CCCCC1 | inactive: 2.03%
47 | CCCC1OP(=O)(Nc2ccccc2)OCC1CC (stereo not drawn) | inactive: 1.11%
48 | O=C(/C=C/c1ccccc1)OC1CN2CCC1CC2 (stereo not drawn) | inactive: -0.18%
49 | CC1CCC(C(C)C)C(OP(=O)(Nc2ccccn2)c2ccccc2)C1 (stereo not drawn) | inactive: -10.7%
50 | Cc1ccc(C(=O)OC2CN3CCC2CC3)cc1 (stereo not drawn) | inactive: -10.9%

Row | Structure (SMILES) | activation
51 | Cc1nn(-c2ccccc2)c2c1P(=O)(N1CCOCC1)N(C)C(c1ccccc1)=N2 (stereo not drawn) | inactive: -0.38%
52 | CN(C(=O)Cc1ccccc1)[C@@H]1CC[C@]2(CCCO2)C[C@H]1N1CCCC1 | inactive: 1.64%
53 | CCOP1(=S)c2c(C)nn(CCC#N)c2N=C(c2ccc(F)cc2)N1C (stereo not drawn) | inactive: -1.77%
54 | N#CCCN(C(=O)COC(=O)C(O)(c1ccccc1)c1ccccc1)c1ccc(F)cc1 | inactive: -0.55%
55 | CN(C(=O)Cc1ccc(Cl)c(Cl)c1)[C@H]1CC[C@@]2(CCCO2)C[C@@H]1N1CCCC1 | inactive: 1.04%
56 | CN(C)C(=O)c1cc([N+](=O)[O-])cc2c1-c1c(cc([N+](=O)[O-])cc1[N+](=O)[O-])C2=O | inactive: -19.7%
57 | O=[N+]([O-])c1ccc2c(c1)nnn2O | inactive: -2.01%
58 | NC(=O)Nc1ccc([As](=O)(O)O)cc1 | inactive: 2.32%
59 | Nc1ccccc1[As](=O)(O)c1ccccc1 | inactive: 1.92%
60 | O=C(O)COc1ccc([As](=O)(O)O)cc1[N+](=O)[O-] | inactive: 0%
61 | O=P(Nc1nccs1)(Oc1ccccc1)Oc1ccccc1 | inactive: -5.51%
62 | CCOP1(=S)c2c(C)nn(CCC#N)c2N=C(c2ccccc2F)N1C (stereo not drawn) | inactive: -5.64%
63 | CCOP(=O)(Nc1cccc2ccccc12)OCC | inactive: -2.31%
64 | COc1cc(C2NCCC3(OCCO3)C2(C)C)cc(OC)c1OC (stereo not drawn) | inactive: 1.1%
65 | Nc1cccc2c([As](=O)(O)O)cccc12 | inactive: -1.34%
66 | Cc1ccc(NCCc2c([N+](=O)[O-])cc([N+](=O)[O-])cc2[N+](=O)[O-])cc1 | inactive: -5.99%
67 | CCCOP(=S)(Nc1nc(N)cc(=O)[nH]1)OCCC | inactive: 6.79%
68 | O=[As](O)(c1cccc(O)c1)c1cccc(O)c1 | inactive: 0.63%
69 | Cc1cccc(OCC(=O)OC2CN3CCC2CC3)c1 (stereo not drawn) | inactive: -5.27%
70 | O=C(OC1CN2CCC1CC2)c1ccc(Cl)cc1 (stereo not drawn) | inactive: -0.77%
71 | CS(=O)(=O)c1ccc(Cl)c(NC(=O)COC(=O)C(O)(c2ccccc2)c2ccccc2)c1 | inactive: 0.92%
72 | COc1cc(C(=O)NCC2(N3CCOCC3)CCCCC2)cc(Cl)c1OC(C)C | inactive: 0.25%
73 | O=[As](O)(O)c1cccnc1 | inactive: -5.63%
